## Binding of CDR-mutated scFvs to a peptide of the spike HR2 region

Values reported by Li et al. 2023, doi:10.1038/s41467-023-39022-2 (FLAb copy).

All variants were tested on one target, the spike HR2 peptide PDVDLGDISGINAS (SARS-CoV-2).

Parent: Ab-14, a human scFv built as VH, a (GGGGS)3 linker, VL. Only the CDRs of the light chain vary.
VH: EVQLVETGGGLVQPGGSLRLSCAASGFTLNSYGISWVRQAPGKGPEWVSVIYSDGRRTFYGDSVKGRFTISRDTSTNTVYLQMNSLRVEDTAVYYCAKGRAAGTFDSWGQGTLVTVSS
VL: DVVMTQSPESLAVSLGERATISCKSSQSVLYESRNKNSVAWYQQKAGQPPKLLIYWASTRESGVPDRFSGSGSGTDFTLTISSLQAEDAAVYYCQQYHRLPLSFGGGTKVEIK

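Phage display of a naive human antibody library on the peptide gave the parent. Designed CDR sequences, proposed from the first random library and measured here. Their group label is 14L_GP_HC (GP: Gaussian process model; HC: hill climbing; a sequence that several methods proposed may carry one label only). AlphaSeq pools MATa yeast showing the antibodies with MATalpha yeast showing the peptide. After mating in shaken culture at 30 °C for 16 h, diploids were selected and their barcode pairs sequenced. Read counts were normalised to the haploid input and turned into Kd by a linear fit to BCL2-family pairs of known affinity, for each replicate. Mating was done six times.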

Variants are written as CDR1, CDR2 and CDR3 of the light chain (limits as in the source). Parent: KSSQSVLYESRNKNSVA, WASTRES, QQYHRLPLS.
The read-out is the apparent dissociation constant on a log10 scale (nM): the lower, the stronger.
Replicates are averaged; those with no signal do not enter the mean.

CDR-L1 | CDR-L2 | CDR-L3 | log10 Kd (nM) by replicate | mean log10 Kd (nM) | signal with controls
HLSWSVLYESNNKNSVA | NASTRES | QQYHRLPLS | 0.61 0.04 -0.38 -0.48 -0.40 0.27 | -0.05 | 1 of 18 (2.90)
KSSQSVLYESRNFNSVA | HASTRED | QQYHRLPLS | 0.60 0.52 0.24 0.08 0.12 0.22 | 0.30 | 2 of 18 (3.20)
KMSQSVLYQSRNKNSVA | DASTRES | QQYHRLPLS | -0.30 -0.48 -0.09 -0.35 -0.25 -0.39 | -0.31 | 0 of 18
KFVQSWLYESRNKNSVA | GASTRES | QQYHRLPLI | 0.62 0.61 0.56 0.44 0.54 0.65 | 0.57 | 2 of 18 (3.43)
KSSPSVLYEDHNKNSVA | NASTRMS | QQYHRLPLS | 0.36 0.32 0.37 0.20 0.03 0.42 | 0.28 | 0 of 18
NSSQSWLYESRNKNSVA | GANTRES | QQYHRLPLS | -0.56 -0.36 -0.56 -0.53 -0.54 -0.33 | -0.48 | 1 of 18 (1.68)
HLSWQVLYESRNKNSVA | NASTRES | QQYHRLPLS | 0.16 0.29 -0.01 0.29 0.03 0.28 | 0.17 | 1 of 18 (2.43)
KLEQSLNYESRNKNSVA | NASTRES | QQYHRLPLS | 0.06 -0.45 -0.25 -0.34 -0.04 -0.44 | -0.24 | 1 of 18 (2.08)
KSSISYLGEKANKNSVA | EASTRES | QQYHRLPLS | 0.38 0.33 0.53 0.10 0.23 0.40 | 0.33 | 1 of 18 (2.59)
KSSISYLYESENKNSVA | AASTRES | QQYHRLPLS | 0.83 1.18 0.98 1.02 0.95 1.30 | 1.04 | 0 of 18
KISQSVLYESRNKNSVA | DASTRES | QQYHRLPLD | -0.02 -0.25 -0.08 -0.20 -0.21 -0.07 | -0.14 | 3 of 18 (2.76)
KSSISYLYESMNKNSVA | MGSTRES | QQYHRLPLS | 0.95 0.76 0.80 0.85 0.63 1.00 | 0.83 | 0 of 18
KQSISYLGEKRNKNSVA | EASTRES | QQYHRLPLS | 0.06 -0.13 -0.23 -0.27 0.07 0.05 | -0.07 | 0 of 18
KLSQSWLYESRNKNSVA | GVSTRES | QQYHRLPLS | -0.10 -0.31 -0.38 -0.36 -0.19 -0.12 | -0.24 | 1 of 18 (2.65)
HSSISVEYESRNKNSVA | NASSREV | QQYHRLPLS | 0.60 0.61 0.61 0.38 0.72 0.73 | 0.61 | 0 of 18
KLSQAFLNESRNKNSVA | DANTRES | QQYHRLPLS | 0.52 0.20 0.27 0.02 0.35 0.40 | 0.29 | 1 of 18 (2.01)
IAYQSWLYESRNKNSVA | GASTRES | QQYHRLPLI | 0.94 0.62 0.46 0.68 0.84 1.16 | 0.78 | 1 of 18 (2.65)
KCSQSVLFEWRNKNSVA | DASTRES | QQYHRLPLS | 0.33 -0.10 -0.12 -0.23 -0.37 0.13 | -0.06 | 1 of 18 (2.54)
KLPQSVLYESRNKNSVA | HASLRED | QQYHRLPLS | 0.22 0.05 -0.22 -0.34 -0.03 -0.01 | -0.06 | 2 of 18 (4.04)
KSGQGVEYESRNKNHVA | GASTRES | QQYHRLPLS | 0.68 0.41 0.44 0.21 -0.23 0.19 | 0.28 | 0 of 18
KASQSFLYESRNVNSVA | GASTRES | QQYHRLPLS | 0.36 0.03 0.01 -0.07 -0.09 0.20 | 0.07 | 0 of 18
KFSQSVLYQSRNKNSVA | DASTRES | QQYHRLPLS | -0.28 -0.54 -0.57 -0.64 -0.77 -0.46 | -0.54 | 1 of 18 (3.76)
KVSQSFLYESRNKNAVA | GASTRES | QQYHRLWLS | 0.05 0.13 -0.01 0.04 0.20 0.20 | 0.10 | 0 of 18
HSSPSVEYESRNKNSVA | EASTRES | QQYHRLPLS | 0.21 0.25 -0.13 0.08 0.17 0.15 | 0.12 | 0 of 18
KSSISQLYESRNKNSVA | EASTRES | QQYHRLPLM | 0.35 0.11 0.00 -0.22 0.03 -0.01 | 0.04 | 1 of 18 (2.61)
KLSQSDLYEDRVKNSVA | GASTRES | QQYHRLPLS | 0.20 0.00 -0.18 -0.14 0.19 -0.05 | 0.00 | 0 of 18
HSSPSVLYESRNGNSVA | NASTRED | QQYHRLPLS | 0.15 0.08 0.31 0.14 0.48 0.38 | 0.26 | 0 of 18
KSQQSQEYESRNKNSVA | HASTRLD | QQYHRLPLS | 0.57 0.39 0.46 0.34 0.45 0.48 | 0.45 | 2 of 18 (2.58)
KSSQSELYESRWKNSVA | GASQRES | QQYHRLPLS | 0.48 0.14 0.26 0.00 0.14 0.25 | 0.21 | 1 of 18 (2.81)
KLFQSVLYESRNKNSVA | HASTRED | QQYHRLPLS | 0.20 0.23 0.25 0.36 -0.03 0.11 | 0.19 | 2 of 18 (3.79)
HSSPSVLYESRNKNSVA | NASTREE | QQYHRLPLQ | 0.02 -0.11 -0.15 -0.25 -0.20 0.19 | -0.08 | 2 of 18 (2.22)
KLMQSVLYESRNKNSVA | GASTRED | QQYHRLPLS | 0.26 0.17 0.38 -0.24 0.13 0.13 | 0.14 | 0 of 18
KSLQSWPYESRNKNSVA | HASTREQ | QQYHRLPLS | 1.06 0.71 0.48 0.92 0.85 1.21 | 0.87 | 1 of 18 (3.59)
HVSQSVLYESRNKNSVA | NGSTRES | QQYHRLPLS | -0.36 -0.36 -0.54 -0.57 -0.46 -0.28 | -0.43 | 1 of 18 (2.55)
KFSQSVLFESRNKNSVA | DASFRES | QQYHRLPLS | 0.05 -0.28 -0.29 -0.12 -0.29 0.27 | -0.11 | 1 of 18 (2.23)
KSSQSFLYESRQKNSVA | NASQRES | QQYHRLPLS | 0.53 0.20 0.33 0.11 0.11 0.39 | 0.28 | 0 of 18
KQSQSVDYESRNKNAVA | DASTRES | QQYHRLPLS | -0.34 -0.43 -0.38 -0.61 -0.21 -0.09 | -0.34 | 2 of 18 (2.95)
KSSISYGYESRNKNSVA | AASTRES | QQYHRLPLS | 0.42 0.78 -0.01 0.05 -0.15 0.48 | 0.26 | 0 of 18
ISSQSWLYESRNKNSVA | GASTRES | QQYHRLPLS | -0.53 -0.66 -0.64 -0.68 -0.69 -0.35 | -0.59 | 0 of 18

Three control strains display no target. For all light chain designs, 4% of the pairings with them gave a signal, with a median of 2.64 and one signal in twenty below 1.59, so weak values seen in few replicates may be background. For each scFv, signals with the empty controls are counted beside the result, with their mean in brackets.
The parent sequence was in this pool as ten entries: three were never detected, three once, and four in most replicates, with averages from 0.34 to 2.37.
The range of this assay differs from that of the first round, and the authors advise against merging the two.
The authors averaged sequences with at least three values out of six and counted those with two or fewer as poor binders.